Values quoted from earlier work, collected in US8318707B2 (priority 2006, dated 2012).

Key:
[1] = test system: cdc2/cyclin B; details: De Azevedo et al. 1997; Bach et al.; cited from earlier work
[2] = test system: cdk-1/cyclin B; details: De Azevedo et al. 1997; Bach et al.; cited from earlier work

Structure (SMILES): CC[C@@H](CO)Nc1nc(NCc2ccccc2)c2ncn(C(C)C)c2n1 [(S)-roscovitine]
- inhibitory activity compared with (R)-roscovitine [1]: lower than that of (R)-roscovitine
- inhibitory activity compared with (R)-roscovitine [2]: lower than that of (R)-roscovitine
